# Values quoted from earlier work in article PMC4646457 (2015).
# Details: Day 8; ref study EGF10002; cited from earlier work
structure (smiles),measurement,value
CS(=O)(=O)CCNCc1ccc(-c2ccc3ncnc(Nc4ccc(OCc5cccc(F)c5)c(Cl)c4)c3c2)o1 [lapatinib],half-life,9 h
